Molecular target: Substance-P receptor (Homo sapiens, UniProt P25103)
Experiment: Human NK1 Receptor Binding Assay: IM-9 cells (2×10^5 cells/mL) were cultured for 3 days after inoculation, and centrifuged at 500×g for 10 min to give cell pellets. The obtained pellets were washed with PBS (Phosphate-Buffered saline) (GIBCO), disrupted in buffer A (50 mM Tris-hydrochloric acid buffer (Tris-HCl) (pH 7.4) containing 120 mM sodium chloride, 5 mM potassium chloride, 2 μg/mL …
Assay type: cell-based

Chains of the proteins cited; added tags and fusions are not shown.
UniProt P25103, whole entry: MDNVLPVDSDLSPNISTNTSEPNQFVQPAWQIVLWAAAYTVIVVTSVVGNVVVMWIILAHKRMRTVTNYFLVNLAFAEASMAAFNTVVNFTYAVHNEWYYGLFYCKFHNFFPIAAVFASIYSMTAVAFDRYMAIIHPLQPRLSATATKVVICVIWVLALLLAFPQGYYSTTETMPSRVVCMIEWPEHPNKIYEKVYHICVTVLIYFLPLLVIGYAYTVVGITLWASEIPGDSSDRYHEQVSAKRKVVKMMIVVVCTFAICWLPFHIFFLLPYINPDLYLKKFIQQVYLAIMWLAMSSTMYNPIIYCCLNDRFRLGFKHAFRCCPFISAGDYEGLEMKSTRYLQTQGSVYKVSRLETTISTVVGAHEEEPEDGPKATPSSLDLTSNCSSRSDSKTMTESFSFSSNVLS

CC(=O)C1CCC(C(=O)N2CC(c3ccc(Cl)c(Cl)c3)[C@H](N(C)C(=O)c3cc(C(F)(F)F)cc(C(F)(F)F)c3)C2)CC1 (stereo partly specified)
IC50: 1.5 nM
